From PMC4793151 (Cell host & microbe, 2016)

Tested on: strain 17875 BabA^AD
Assay: ITC of strain 17875 BabA^AD titrated with bg glycans
Assay type: binding, Helicobacter pylori

SMILES	fold lower monovalent affinity compared to BLe^b7	fold lower monovalent affinity compared to Le^b5	fold increase in monovalent affinity compared to Le^b5
CC(=O)N[C@H]1[C@@H](O[C@H]2[C@@H](O)[C@@H](CO)O[C@@H](O[C@H]3[C@H](O)[C@@H](CO)O[C@@H](O[C@H]4[C@@H](O)[C@@H](CO)O[C@@H](O[C@H]5[C@H](O)[C@@H](O)C(O)O[C@@H]5CO)[C@@H]4O)[C@@H]3NC(C)=O)[C@@H]2O[C@@H]2O[C@@H](C)[C@@H](O)[C@@H](O)[C@@H]2O)O[C@H](CO)[C@H](O)[C@@H]1O (stereo partly drawn) [A6-1, A type 1 hexasaccharide]	~3.5 fold	2 fold	
CC(=O)N[C@H]1[C@H](O[C@H]2[C@@H](O)[C@@H](CO)O[C@@H](O[C@H]3[C@H](O)[C@@H](O)C(O)O[C@@H]3CO)[C@@H]2O)O[C@H](CO)[C@@H](O[C@@H]2O[C@@H](C)[C@@H](O)[C@@H](O)[C@@H]2O)[C@@H]1O[C@@H]1O[C@H](CO)[C@H](O)[C@H](O[C@H]2O[C@H](CO)[C@H](O)[C@H](O)[C@H]2O)[C@H]1O[C@@H]1O[C@@H](C)[C@@H](O)[C@@H](O)[C@@H]1O (stereo partly drawn) [BLe^b7]			2 fold
